Source: publication PMC4624220 (Journal of medicinal chemistry, 2015)

Target: α-syn fibrils (Homo sapiens, UniProt P37840)
Conditions: from Thio-T competition Ki values

CN(C)c1ccc(/C=C/C=C2C(=O)N(Cc3ccc([N+](=O)[O-])cc3)c3ccccc32)cc1 [Compound 28, 3-(3-(4-(Dimethylamino)phenyl)allylidene)-1-(4-nitrobenzyl)indolin-2-one]
selectivity for α-syn versus Aβ fibrils: 20 fold | selectivity for α-syn versus tau fibrils: 20 fold
